Reference: ChEMBL document CHEMBL5728569, “Heteroaryl-substituted triazoles as APJ receptor agonists” (2021)

Target: T1, Apelin receptor (Homo sapiens, UniProt P35414)
T1 sequence (P35414 whole entry): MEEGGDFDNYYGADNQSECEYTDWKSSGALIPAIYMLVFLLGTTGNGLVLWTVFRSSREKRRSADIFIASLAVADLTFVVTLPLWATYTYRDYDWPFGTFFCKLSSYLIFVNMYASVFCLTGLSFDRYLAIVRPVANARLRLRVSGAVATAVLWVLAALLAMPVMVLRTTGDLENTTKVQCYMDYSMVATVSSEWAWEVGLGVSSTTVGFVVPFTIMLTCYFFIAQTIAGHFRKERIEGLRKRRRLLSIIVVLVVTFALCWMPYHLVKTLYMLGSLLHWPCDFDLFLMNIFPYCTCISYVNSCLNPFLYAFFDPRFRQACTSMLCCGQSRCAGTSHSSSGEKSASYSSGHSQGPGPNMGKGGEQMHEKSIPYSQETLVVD
Experiment: [35S]GTPgammaS Binding: The human APJ receptor was cloned by polymerase chain reaction and the gene encoding the receptor was subcloned in pFLAG-CMV™-3 expression vector (Sigma, Saint Louis, Mo. USA) in-house at Amgen. A GTPγS binding assay was performed on membranes prepared from CHO cells stably expressing human APJ receptor. The optimum experimental conditions for the concentrations of GDP, MgCl2, and NaCl in the assay buffer were initially determined. […] Incubation was at RT for 90 min and the microplate was read using a ViewLux™ ultra HTS Microplate Imager (PerkinElmer, Inc.).

COc1cccc(OC)c1-n1c(NS(=O)(=O)C[C@H](OC)c2ccc(Cl)cn2)nnc1-c1ccn(C)n1 (mixture of isomers)
EC50: 1.1 nM
